Source: PubChem BioAssay (NCI)
Some of these compounds have results that are not shown, active ones among them.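 Results reflect a 48-hour exposure of cells in 96-well plates to compound at five concentrations. GI50 marks 50% less growth. TGI: total growth inhibition.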

What was measured:
Assay in all cases: NCI anticancer screen, dose series, 48 h
[1] = test system: NCI-H322M lung
[2] = test system: NCI-H460 lung
[3] = test system: NCI-H522 lung
[4] = test system: NCI/ADR-RES ovarian
[5] = test system: OVCAR-3 ovarian
[6] = test system: OVCAR-4 ovarian
[7] = test system: OVCAR-5 ovarian
[8] = test system: OVCAR-8 ovarian
[9] = test system: PC-3 prostate
[10] = test system: RPMI-8226 leukemia
[11] = test system: RXF 393 renal
[12] = test system: SF-268 CNS
[13] = test system: SF-295 CNS
[14] = test system: SF-539 CNS
[15] = test system: SK-MEL-2 melanoma
[16] = test system: SK-MEL-28 melanoma
[17] = test system: SK-MEL-5 melanoma
[18] = test system: SK-OV-3 ovarian
[19] = test system: SN12C renal
[20] = test system: SNB-19 CNS
[21] = test system: SNB-75 CNS
[22] = test system: SR leukemia
[23] = test system: SW-620 colon
[24] = test system: T-47D breast
[25] = test system: TK-10 renal
[26] = test system: U251 CNS
[27] = test system: UACC-257 melanoma
[28] = test system: UACC-62 melanoma
[29] = test system: UO-31 renal

C#CC(O)(C(=O)OC1CN2CCC1CC2)c1ccccc1 (stereo not drawn)
GI50 [1]: > 100 µM | TGI [1]: > 100 µM | GI50 [2]: > 100 µM | TGI [2]: > 100 µM | GI50 [3]: > 100 µM | TGI [3]: > 100 µM | GI50 [4]: > 100 µM | TGI [4]: > 100 µM | GI50 [5]: > 100 µM | TGI [5]: > 100 µM | GI50 [6]: > 100 µM | TGI [6]: > 100 µM | GI50 [7]: > 100 µM | TGI [7]: > 100 µM | GI50 [8]: > 100 µM | TGI [8]: > 100 µM | GI50 [9]: > 100 µM | TGI [9]: > 100 µM | GI50 [10]: > 100 µM | TGI [10]: > 100 µM | GI50 [11]: > 100 µM | TGI [11]: > 100 µM | GI50 [12]: > 100 µM | TGI [12]: > 100 µM | GI50 [13]: > 100 µM | TGI [13]: > 100 µM | GI50 [14]: > 100 µM | TGI [14]: > 100 µM | GI50 [15]: > 100 µM | TGI [15]: > 100 µM | GI50 [16]: > 100 µM | TGI [16]: > 100 µM | GI50 [17]: > 100 µM | TGI [17]: > 100 µM | GI50 [18]: > 100 µM | TGI [18]: > 100 µM | GI50 [19]: > 100 µM | TGI [19]: > 100 µM | GI50 [20]: > 100 µM | TGI [20]: > 100 µM | GI50 [21]: > 100 µM | TGI [21]: > 100 µM | GI50 [22]: > 100 µM | TGI [22]: > 100 µM | GI50 [23]: > 100 µM | TGI [23]: > 100 µM | GI50 [24]: > 100 µM | TGI [24]: > 100 µM | GI50 [25]: > 100 µM | TGI [25]: > 100 µM | GI50 [26]: > 100 µM | TGI [26]: > 100 µM | GI50 [27]: > 100 µM | TGI [27]: > 100 µM | GI50 [28]: > 100 µM | TGI [28]: > 100 µM | GI50 [29]: > 100 µM | TGI [29]: > 100 µM
